Target: T1, hGPR55 (HEK293.GPR55) (Homo sapiens, UniProt Q9Y2T6)
T1 construct: expressed in transfected cells; host or cells: HEK293
Assay: Ca2+ Ion Flux assay, HEK293.GPR55
Format: cell-based

The chains behind the UniProt entries cited, without tags or fusion partners. Where a name states a change or a piece, a line headed by the entry shows the natural chain unless it says otherwise.
UniProt Q9Y2T6: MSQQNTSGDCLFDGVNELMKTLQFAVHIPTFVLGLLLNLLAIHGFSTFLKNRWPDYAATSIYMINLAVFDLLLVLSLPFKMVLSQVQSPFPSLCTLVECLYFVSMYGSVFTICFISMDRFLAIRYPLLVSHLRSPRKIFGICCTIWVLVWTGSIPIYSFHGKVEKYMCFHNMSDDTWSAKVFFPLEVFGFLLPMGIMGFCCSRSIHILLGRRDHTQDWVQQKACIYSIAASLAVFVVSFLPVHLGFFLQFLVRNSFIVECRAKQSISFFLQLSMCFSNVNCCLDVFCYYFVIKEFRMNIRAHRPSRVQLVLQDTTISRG

Calcium fluxes in HEK293.GPR55: demonstrate calcium fluxes
Substance: AM251 [reference compound]

Reference: PMC5522996, “Big conductance calcium‐activated potassium channel openers control spasticity without sedation” (British Journal of Pharmacology, 2017)
